# According to US8518939B2, “6-pyrimidinyl-pyrimid-4-one derivative” (Mitsubishi Tanabe Pharma Corporation, priority 2007, dated 2013):
# System: scopolamine-treated mice
# Assay: Object recognition test, 3 h inter-trial interval, scopolamine-induced episodic memory deficit
# Details: scopolamine 1 mg/kg s.c. 30 minutes before acquisition, object explored 3 h before
smiles,measurement,value
CN1[C@@H]2C[C@@H](OC(=O)[C@H](CO)c3ccccc3)C[C@H]1[C@@H]1O[C@@H]12 [scopolamine],effect on episodic memory,completely abolished episodic memory
